Laboratory results as given in US9221808B2, “Pyridylthiazole-based ureas as inhibitors of Rho associated protein kinase (ROCK) and methods of use” (H. Lee Moffitt Cancer Center and Research Institute, Inc., priority 2010, dated 2015).
Where two headings read alike, the source gives them in different places.

The chains behind the UniProt entries cited, without tags or fusion partners.
UniProt Q13464, whole entry, species assumed: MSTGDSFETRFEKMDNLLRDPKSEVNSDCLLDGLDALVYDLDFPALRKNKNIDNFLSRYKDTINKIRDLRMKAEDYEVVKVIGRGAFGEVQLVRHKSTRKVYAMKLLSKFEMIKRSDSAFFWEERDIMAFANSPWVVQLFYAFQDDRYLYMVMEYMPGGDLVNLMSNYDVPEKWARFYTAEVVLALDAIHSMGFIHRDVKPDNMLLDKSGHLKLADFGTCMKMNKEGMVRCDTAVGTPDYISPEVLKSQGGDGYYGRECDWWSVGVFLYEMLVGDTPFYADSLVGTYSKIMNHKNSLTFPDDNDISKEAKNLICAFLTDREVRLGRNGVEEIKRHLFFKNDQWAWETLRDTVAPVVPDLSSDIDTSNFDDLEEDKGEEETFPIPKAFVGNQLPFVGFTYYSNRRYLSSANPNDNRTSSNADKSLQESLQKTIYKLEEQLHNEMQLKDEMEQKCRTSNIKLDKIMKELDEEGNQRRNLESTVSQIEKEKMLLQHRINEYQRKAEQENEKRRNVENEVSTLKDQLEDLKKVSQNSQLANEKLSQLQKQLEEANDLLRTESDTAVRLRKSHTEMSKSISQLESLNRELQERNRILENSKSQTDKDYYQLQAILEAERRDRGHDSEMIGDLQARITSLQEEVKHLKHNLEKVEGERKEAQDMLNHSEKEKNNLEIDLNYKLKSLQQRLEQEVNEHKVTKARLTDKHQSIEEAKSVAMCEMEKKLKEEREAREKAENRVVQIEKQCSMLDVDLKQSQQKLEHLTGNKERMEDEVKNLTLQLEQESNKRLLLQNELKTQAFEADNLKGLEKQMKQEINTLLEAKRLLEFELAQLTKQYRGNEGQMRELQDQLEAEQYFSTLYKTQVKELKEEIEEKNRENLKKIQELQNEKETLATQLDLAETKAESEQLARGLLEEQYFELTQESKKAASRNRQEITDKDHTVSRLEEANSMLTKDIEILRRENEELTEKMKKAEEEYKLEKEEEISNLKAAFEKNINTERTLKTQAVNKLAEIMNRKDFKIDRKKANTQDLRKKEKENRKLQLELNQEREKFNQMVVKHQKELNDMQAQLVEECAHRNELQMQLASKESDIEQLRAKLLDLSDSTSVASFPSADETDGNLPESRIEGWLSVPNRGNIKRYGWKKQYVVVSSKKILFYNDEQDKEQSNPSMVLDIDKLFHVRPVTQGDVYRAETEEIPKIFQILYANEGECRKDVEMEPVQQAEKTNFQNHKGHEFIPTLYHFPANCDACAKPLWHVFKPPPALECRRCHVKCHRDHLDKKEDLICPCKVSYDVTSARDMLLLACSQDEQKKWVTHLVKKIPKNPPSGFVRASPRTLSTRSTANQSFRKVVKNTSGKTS
UniProt O75116, whole entry, species assumed: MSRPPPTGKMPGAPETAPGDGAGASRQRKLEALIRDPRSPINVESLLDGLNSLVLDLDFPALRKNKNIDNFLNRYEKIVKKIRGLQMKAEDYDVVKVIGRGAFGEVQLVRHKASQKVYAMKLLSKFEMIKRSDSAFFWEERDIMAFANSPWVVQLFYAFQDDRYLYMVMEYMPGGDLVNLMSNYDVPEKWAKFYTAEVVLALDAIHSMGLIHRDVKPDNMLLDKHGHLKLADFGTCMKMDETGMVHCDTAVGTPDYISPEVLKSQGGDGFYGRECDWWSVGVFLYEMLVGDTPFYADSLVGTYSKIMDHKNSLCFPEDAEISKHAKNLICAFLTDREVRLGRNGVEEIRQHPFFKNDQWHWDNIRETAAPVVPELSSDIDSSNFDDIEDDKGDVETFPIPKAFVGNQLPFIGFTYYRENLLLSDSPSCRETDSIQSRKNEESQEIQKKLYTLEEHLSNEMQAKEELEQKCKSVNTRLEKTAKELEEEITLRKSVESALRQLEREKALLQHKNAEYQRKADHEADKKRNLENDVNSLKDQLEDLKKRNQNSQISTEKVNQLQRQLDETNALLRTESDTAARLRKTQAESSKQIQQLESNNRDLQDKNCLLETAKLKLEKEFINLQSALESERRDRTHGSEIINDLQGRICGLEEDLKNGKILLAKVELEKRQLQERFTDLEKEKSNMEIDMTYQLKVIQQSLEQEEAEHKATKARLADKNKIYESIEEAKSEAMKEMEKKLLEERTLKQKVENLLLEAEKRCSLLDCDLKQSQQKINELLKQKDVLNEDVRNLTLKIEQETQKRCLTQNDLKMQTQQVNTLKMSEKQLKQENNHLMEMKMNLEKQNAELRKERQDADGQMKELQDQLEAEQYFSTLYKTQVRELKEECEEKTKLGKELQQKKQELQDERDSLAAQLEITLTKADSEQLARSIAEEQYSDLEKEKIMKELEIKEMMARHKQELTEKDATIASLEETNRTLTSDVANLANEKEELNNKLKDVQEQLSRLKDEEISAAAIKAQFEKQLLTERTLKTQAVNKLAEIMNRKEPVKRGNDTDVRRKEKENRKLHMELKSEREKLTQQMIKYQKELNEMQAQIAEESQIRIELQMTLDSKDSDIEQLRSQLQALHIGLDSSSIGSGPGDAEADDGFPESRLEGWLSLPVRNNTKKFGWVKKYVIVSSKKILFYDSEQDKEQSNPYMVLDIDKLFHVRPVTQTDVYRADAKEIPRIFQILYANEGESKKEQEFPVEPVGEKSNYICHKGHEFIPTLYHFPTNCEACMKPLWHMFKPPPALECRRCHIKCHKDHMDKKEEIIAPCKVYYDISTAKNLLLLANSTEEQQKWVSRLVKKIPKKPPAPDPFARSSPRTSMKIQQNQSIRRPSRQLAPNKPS

How the values were obtained:
ROCK1 = ROCK1 (Homo sapiens (Human), UniProt Q13464); test: FRET-based Z'-Lyte kinase assay, ROCK1; format: biochemical;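 further: kinase phosphorylates a coumarin/fluorescein-labelled FRET peptide, then a protease cleaves unphosphorylated peptide, progress read as donor to acceptor emission ratio after 400 nm excitation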
ROCK2 = ROCK2 (Homo sapiens (Human), UniProt O75116); test: FRET-based Z'-Lyte kinase assay, ROCK2; format: biochemical; settings: read-out: IC50 ± SD (μM) ROCK2;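 further: kinase phosphorylates a coumarin/fluorescein FRET peptide, then a protease cleaves unphosphorylated peptide, read as donor/acceptor emission ratio after 400 nm excitation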

IC50 (ROCK1; read-out: ROCK1 IC50) | IC50 (ROCK2) | IC50 (ROCK1; read-out: IC50 ± SD (μM) ROCK1) | Structure (SMILES)
0.06 µM | 0.03 ± 0.02 µM |  | O=C(Nc1nc(-c2ccncc2)cs1)NC(CO)c1ccccc1 (stereo not drawn) [Compound 1ar, 1-(2-Hydroxy-1-phenylethyl)-3-(4-(pyridin-4-yl)thiazol-2-yl)urea]
 | 2.5 ± 1 µM | 5.2 µM | O=C(Nc1nc(-c2ccncc2)cs1)N[C@@H](CO)c1ccccc1 [Compound 1as, (R)-1-(2-Hydroxy-1-phenylethyl)-3-(4-(pyridin-4-yl)thiazol-2-yl)urea]
0.03 µM | 0.03 ± 0.01 µM |  | O=C(Nc1nc(-c2ccncc2)cs1)N[C@H](CO)c1ccccc1 [Compound 1at, (S)-1-(2-Hydroxy-1-phenylethyl)-3-(4-(pyridin-4-yl)thiazol-2-yl)urea]
